Values quoted from earlier work, collected in US20180318279A1 (priority 2015, published 2018).

Test system: inflamed paw; Mu opioid receptors
Details: in vivo, cited from earlier work

For `CN1CC[C@]23c4c5ccc(O)c4O[C@H]2[C@@H](O)C=C[C@H]3[C@H]1C5` [morphine], the paw affected (sc) is listed as “affected both the inflamed and non-inflamed paw” and the “reversal of effect by naltrexone and methylnaltrexone” value is listed as “reversed by naltrexone but not methylnaltrexone”.
